Values quoted from earlier work, collected in PMC4266533, “Kinetics of the early events of GPCR signalling” (Febs Letters, 2014).

By UniProt entry, the sequences of proteins in these tests, tags left out.
UniProt P20789, whole entry: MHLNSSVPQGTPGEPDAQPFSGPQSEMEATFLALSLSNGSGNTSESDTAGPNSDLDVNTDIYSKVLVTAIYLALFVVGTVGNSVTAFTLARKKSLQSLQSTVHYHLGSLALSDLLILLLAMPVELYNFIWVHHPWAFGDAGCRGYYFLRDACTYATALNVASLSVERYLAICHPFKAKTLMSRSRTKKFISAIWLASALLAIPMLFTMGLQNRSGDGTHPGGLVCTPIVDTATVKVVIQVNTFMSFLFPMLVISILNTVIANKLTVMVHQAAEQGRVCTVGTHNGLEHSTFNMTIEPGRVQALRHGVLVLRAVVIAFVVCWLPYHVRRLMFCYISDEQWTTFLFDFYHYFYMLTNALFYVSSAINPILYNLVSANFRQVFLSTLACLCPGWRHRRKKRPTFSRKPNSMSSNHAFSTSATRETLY

Molecular target: Neurotensin (Homo sapiens)
Details: cited from earlier work

NTS1 (from UniProt P20789)
Kd: 1 nM
